Results reported in patent US20060177446A1.

Protein sequences, listed by entry. Tags and fused reporters are not part of them. Residues count along the entry.
UniProt P13726, 33-295 limits assumed: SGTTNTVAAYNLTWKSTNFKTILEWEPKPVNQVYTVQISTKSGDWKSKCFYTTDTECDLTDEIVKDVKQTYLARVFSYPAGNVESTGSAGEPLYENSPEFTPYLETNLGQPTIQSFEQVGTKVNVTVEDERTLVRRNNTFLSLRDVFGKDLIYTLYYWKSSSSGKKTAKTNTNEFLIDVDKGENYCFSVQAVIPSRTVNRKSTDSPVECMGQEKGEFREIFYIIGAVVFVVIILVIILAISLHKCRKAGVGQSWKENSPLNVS
UniProt P13726, 33-251 limits assumed: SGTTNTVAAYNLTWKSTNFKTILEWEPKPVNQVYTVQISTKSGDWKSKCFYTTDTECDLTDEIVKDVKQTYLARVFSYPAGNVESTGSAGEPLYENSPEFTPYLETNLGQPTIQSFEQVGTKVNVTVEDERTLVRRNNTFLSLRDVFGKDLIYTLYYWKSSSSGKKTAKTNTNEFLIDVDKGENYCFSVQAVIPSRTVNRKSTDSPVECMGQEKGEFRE

Tests used:
[1] = target: human TF (Innovin®) (human) (UniProt P13726); assay: cell-based or functional assay
tissue factor (TF) = tissue factor (TF) (UniProt P13726); assay: calculated from the earlier TF/D3H44-Fab crystal structure

Row | Substance | prolongation of the prothrombin time in citrated human plasma [1] [fold] | shape complementarity (sc) (tissue factor (TF)) | solvent accessible surface area lost by D3H44-Fab VH (tissue factor (TF)) [Å^2] | solvent accessible surface area lost by the D3H44-Fab light chain (tissue factor (TF)) [Å^2]
1 | D3H44 (antibody) | 3 to 7 | – | – | –
2 | D3H44-Fab | – | 0.71 | 700 | 280
